Data as given in patent US20240288446A1, “METHOD FOR DIAGNOSING FIBRINOLYTIC INSUFFICIENCY RELATED TO NEUTROPHIL EXTRACELLULAR TRAPS” (Hôpitaux Universitaires de Strasbourg, priority 2019, published 2024).

Chains of the proteins cited; added tags and fusions are not shown.
α1-proteinase inhibitor, P01009, UniProt P01009, whole entry, looked up: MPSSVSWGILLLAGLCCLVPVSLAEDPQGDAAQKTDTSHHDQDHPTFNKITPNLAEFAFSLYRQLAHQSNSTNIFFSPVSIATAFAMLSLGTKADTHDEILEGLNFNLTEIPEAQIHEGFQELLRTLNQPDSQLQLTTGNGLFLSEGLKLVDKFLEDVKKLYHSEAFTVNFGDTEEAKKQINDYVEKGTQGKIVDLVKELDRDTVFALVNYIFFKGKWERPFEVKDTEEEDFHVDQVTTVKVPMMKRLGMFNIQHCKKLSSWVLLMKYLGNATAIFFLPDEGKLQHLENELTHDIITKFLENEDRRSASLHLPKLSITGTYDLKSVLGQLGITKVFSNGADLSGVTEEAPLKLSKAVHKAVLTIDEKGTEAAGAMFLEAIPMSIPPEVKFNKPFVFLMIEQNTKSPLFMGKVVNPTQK

Molecular target: α1-proteinase inhibitor, P01009

B1: Human neutrophil elastase (enzyme, UniProt P08246 30-247, looked up)
chain: IVGGRRARPHAWPFMVSLQLRGGHFCGATLIAPNFVMSAAHCVANVNVRAVRVVLGAHNLSRREPTRQVFAVQRIFENGYDPVNLLNDIVILQLNGSATINANVQVAQLPAQGRRLGNGVQCLAMGWGLLGRNRGIASVLQELNVTVVTSLCRRSNVCTLVRGRQAGVCFGDSGSPLVCNGLIHGIASFVRGGCASGLYPDAFAPVAQFVNWIDSIIQ
notes: Tested free (purified, in supernatants or in plasma) and as an HNE-DNA complex on NETs; also called HNE; leukocyte elastase
With B1 the “activity of DNA-associated HNE (chromogenic substrate MeO-Suc-AAPV-pNA)” value was “produced only around 20% decrease in the activity of DNA-associated HNE” and the “soluble HNE activity (chromogenic substrate MeO-Suc-AAPV-pNA)” value was “efficiently inhibits soluble HNE in supernatants or added to plasma”.
